The record followed here is PMC8163800, “Extreme parsimony in ATP consumption by 20S complexes in the global disassembly of single SNARE complexes” (Nature Communications, 2021).

Amino acid sequences for entries named in this document (tags omitted). A change or cut given only in a name is not applied to a line headed by its entry.
UniProt P60881: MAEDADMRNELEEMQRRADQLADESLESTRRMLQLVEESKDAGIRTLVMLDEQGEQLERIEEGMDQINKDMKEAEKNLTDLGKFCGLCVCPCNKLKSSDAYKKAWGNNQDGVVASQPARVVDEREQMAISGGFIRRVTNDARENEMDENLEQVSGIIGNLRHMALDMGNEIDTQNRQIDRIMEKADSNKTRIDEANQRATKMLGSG

The target of test [1] is vesicle-reconstituted SNARE complex (ΔN-SNARE complex vesicles loaded with soluble synaptobrevin-2 1–96) (rat) (UniProt P60881). Kind of test: single-molecule fluorescence co-localisation with counting of photobleaching steps (TIRF); SNARE vesicles (1:30,000 protein/lipid) held on NeutrAvidin; 100 nM SNAP-tag-αSNAP, then 1 nM Dylight549-labelled NSF with 1 mM ATP and 1 mM EDTA; H50N50 buffer.

Test [2] has as its target SNARE–αSNAP complex on vesicles (rat | bovine) (UniProt P60881). Put plainly: single-molecule pull-down of labelled NSF via the SNARE–αSNAP complex with counting of photobleaching steps (TIRF); SNARE vesicles (1:500) held on NeutrAvidin, 100 nM αSNAP loaded and washed; 5 pM NSF (WT or A-MT hybrid) or 10 pM NSF (N-MT hybrid); non-hydrolyzing, 1 mM ATP/1 mM EDTA; H50N50 buffer.

“And” between values parts separate entries of the source, which are not always exact repeats. Equal values may be shown once.

Take “SNAP-tag-αSNAP labelled with BG-Alexa647 (from UniProt P81125 1-295) (natural protein)”: in test [1], the percent of 20S complexes with four photobleaching steps of αSNAP is 14%; the stoichiometry N (commonly the number of molecules, sites or subunits per partner or assembly) was 4 and 2.
Consider “N-MT hybrid NSF hexamer with three N-MT subunits (from UniProt P18708 1-744; P18708 207-744) (complex)”, for which, in test [2], the relative avidity (normalized to single-mutant hexamers) turned out to be 25%.
“N-MT hybrid NSF hexamer with two N-MT subunits (from UniProt P18708 1-744; P18708 207-744) (complex)” showed a reduction of relative avidity against hexamers with one N-MT subunit in test [2] of 20%.
